Measurements published in patent US10166214B2, “Somatostatin receptor subtype 4 (SSTR4) agonists” (Centrexion Therapeutics Corporation, priority 2013, dated 2019).

Assay: Metabolic stability in pooled human liver microsomes (half-life)
Assay type: in vitro ADME
Conditions: pH 7.6, 37° C., 1 μM test compound, read-out: Half-life t1/2
Description: The metabolic stability of the compounds according to the invention may be investigated as follows:
The metabolic degradation of the test compound is assayed at 37° C. with pooled human liver microsomes. The final incubation volume of 100 μl per time point contains TRIS buffer pH 7.6 at room temperature (0.1 M), magnesium chloride (5 mM), microsomal protein (1 mg/mL) and the test compound at a final concentration of 1 μM. Following a short preincubation period at 37° C., the reactions are initiated by addition of beta-nicotinamide adenine dinucleotide phosphate, reduced form (NADPH, 1 mM), and terminated by transferring an aliquot into solvent after different time points. After centrifugation (10000 g, 5 min), an aliquot of the supernatant is assayed by LC-MS/MS for the amount of parent compound. The half-life is determined by the slope of the semi-logarithmic plot of the concentration-time profile.

Structure (SMILES)	half-life at 1 μM
Cc1nnc(C(C)(C)NC(=O)[C@H]2[C@@H]3CNC[C@@H]32)c2ccccc12 [Example 77]	> 2.17 h
CC(C)(NC(=O)[C@H]1[C@@H]2CNC[C@@H]21)c1noc2c(Cl)cccc12 [Example 103]	> 2.17 h
CC(C)(NC(=O)[C@H]1[C@@H]2CNC[C@@H]21)c1ncnc2ccccc12 [Example 89]	> 2.17 h
CC(C)(NC(=O)[C@H]1[C@@H]2CNC[C@@H]21)c1cncc2ccccc12 [Example 90]	> 2.17 h
CC(C)(NC(=O)[C@H]1[C@@H]2CNC[C@@H]21)c1noc2c(C3CC3)cccc12 [Example 104]	> 2.17 h
Cc1cccc2c(C(C)(C)NC(=O)[C@H]3[C@@H]4CNC[C@@H]43)noc12 [Example 92]	> 2.17 h
